Binding of CDR-mutated scFvs to a peptide of the spike HR2 region

Source: Engelhart et al. 2022 (doi:10.1038/s41597-022-01779-4), MIT Lincoln Laboratory and A-Alpha Bio; data file from the FLAb repository.

Target: peptide PDVDLGDISGINAS, taken from heptad repeat 2 (HR2) of SARS-CoV-2 spike.

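The parent was found by panning a naive human phage display library on the peptide. In library AAYL50, one, two or three CDR residues were substituted; doubles and triples were drawn at random. In AlphaSeq, yeast of one mating type display the scFv and yeast of the other type display the target. Binding brings cells together so that they mate, and sequencing counts the barcode pairs among the diploids. Each replicate has its own calibration line, from reference interactions of the BCL2 family. The assay was run in three technical replicates.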

Parent: Ab-14, a human scFv built as VH, a 15-residue (Gly4Ser)3 linker, VL. Only the CDRs of the light chain vary.
VH: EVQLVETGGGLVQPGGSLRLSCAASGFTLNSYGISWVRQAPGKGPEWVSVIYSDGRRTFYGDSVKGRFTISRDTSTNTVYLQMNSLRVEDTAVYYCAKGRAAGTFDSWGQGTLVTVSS
VL: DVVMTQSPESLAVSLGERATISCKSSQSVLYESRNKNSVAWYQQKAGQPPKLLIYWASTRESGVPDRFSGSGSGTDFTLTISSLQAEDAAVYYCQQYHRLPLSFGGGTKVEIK

Sequences are complete VL domains. Every variant below is changed at S26 of the VL (sequential numbering). Values are apparent Kd, the geometric mean of the replicates that gave a signal; lower means stronger binding. "nd" means that the variant was in the library but no mating with the target was seen in any replicate; the authors take this as a sign of poor binding, and no number exists. Parent in this assay: reference entry 4.4 nM, copy in this library 48 nM.

Variant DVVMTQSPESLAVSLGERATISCKSIQSVLKESRNKNSAAWYQQKAGQPPKLLIYWASTRESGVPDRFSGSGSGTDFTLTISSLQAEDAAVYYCQQYHRLPLSFGGGTKVEIK showed nd (0 of 3 replicates; controls 2 of 9). Variant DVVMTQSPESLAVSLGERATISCKSNQSVLYESRNKNSVAWYQQKAGQPPKLLIYWARTRESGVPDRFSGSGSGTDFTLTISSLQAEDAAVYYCQQYFRLPLSFGGGTKVEIK gave 12 nM (3 of 3 replicates; controls 2 of 9). For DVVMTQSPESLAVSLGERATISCKSTQSVLYESRNKNSVAWYQQKAGQPPKLLIYWASTRESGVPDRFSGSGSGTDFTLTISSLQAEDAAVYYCQQYHRLPPRFGGGTKVEIK, the assay gave 4.5 µM (1 of 3 replicates; controls 1 of 9). With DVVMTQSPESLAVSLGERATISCKSNQSVLYESRNKNSVAWYQQKAGQPPKLLIYWASTRISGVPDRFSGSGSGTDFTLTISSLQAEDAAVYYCQQYHRLPLSFGGGTKVEIK the result was 25 nM (3 of 3 replicates; controls 2 of 9). Variant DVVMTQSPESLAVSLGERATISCKSDQSVLYESRNLNSVAWYQQKAGQPPKLLIYWASTRESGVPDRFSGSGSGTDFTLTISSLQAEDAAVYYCQQYHRLPSSFGGGTKVEIK showed 11 nM (3 of 3 replicates; controls 0 of 9).

Variant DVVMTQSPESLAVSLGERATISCLSRQSVLYESRNKNSVAWYQQKAGQPPKLLIYWASTRESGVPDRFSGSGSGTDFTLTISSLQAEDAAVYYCQQYHRLPFSFGGGTKVEIK gave 260 nM (3 of 3 replicates; controls 1 of 9). Variant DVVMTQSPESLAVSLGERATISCKSLQSVLYESRFKNSVAWYQQKAGQPPKLLIYWASTREWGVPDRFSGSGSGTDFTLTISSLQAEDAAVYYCQQYHRLPLSFGGGTKVEIK gave 170 nM (1 of 3 replicates; controls 0 of 9). With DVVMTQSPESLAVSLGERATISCKSHQSVLFESRNKNSVAWYQQKAGQPPKLLIYWASTRESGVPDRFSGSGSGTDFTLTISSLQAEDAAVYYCQQYHRLPLCFGGGTKVEIK the result was 480 nM (3 of 3 replicates; controls 1 of 9). Variant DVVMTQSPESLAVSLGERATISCKSDQSVLYESRNKNSIAWYQQKAGQPPKLLIYWASTRESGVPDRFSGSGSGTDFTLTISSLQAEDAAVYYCQQKHRLPLSFGGGTKVEIK showed nd (0 of 3 replicates; controls 1 of 9). Variant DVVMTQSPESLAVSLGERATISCKSFQSVLYESRCKNSVAWYQQKAGQPPKLLIYWAETRESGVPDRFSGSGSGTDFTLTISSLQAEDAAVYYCQQYHRLPLSFGGGTKVEIK gave 7.7 µM (3 of 3 replicates; controls 3 of 9).

Variant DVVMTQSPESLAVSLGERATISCKSPQSVRYESRNKNSVAWYQQKAGQPPKLLIYWASTRESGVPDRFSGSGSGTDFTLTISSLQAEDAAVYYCQQYHMLPLSFGGGTKVEIK showed 12 nM (3 of 3 replicates; controls 3 of 9). Variant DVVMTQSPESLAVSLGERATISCKSGQSKLYESRNKNSVAWYQQKAGQPPKLLIYWASTRESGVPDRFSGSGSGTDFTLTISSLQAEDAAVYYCQQYHRLELSFGGGTKVEIK gave 22 nM (3 of 3 replicates; controls 3 of 9). For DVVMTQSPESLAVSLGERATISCSSFQSVLYESRNKNSVAWYQQKAGQPPKLLIYWASTRPSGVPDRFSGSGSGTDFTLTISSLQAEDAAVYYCQQYHRLPLSFGGGTKVEIK, the assay gave 1.9 µM (3 of 3 replicates; controls 2 of 9). Variant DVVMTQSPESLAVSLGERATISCKSDLSVLYESRNKNSVAWYQQKAGQPPKLLIYWFSTRESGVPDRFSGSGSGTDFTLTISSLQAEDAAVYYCQQYHRLPLSFGGGTKVEIK showed 14 µM (1 of 3 replicates; controls 1 of 9). With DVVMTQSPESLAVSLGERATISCSSRQSVLYESHNKNSVAWYQQKAGQPPKLLIYWASTRESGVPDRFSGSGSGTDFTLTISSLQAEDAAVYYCQQYHRLPLSFGGGTKVEIK the result was 49 nM (3 of 3 replicates; controls 3 of 9).

Variant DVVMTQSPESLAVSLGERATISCKSNQSVLYMSRNKNSVAWYQQKAGQPPKLLIYWASTAESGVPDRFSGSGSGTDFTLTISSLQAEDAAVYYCQQYHRLPLSFGGGTKVEIK showed nd (0 of 3 replicates; controls 0 of 9). For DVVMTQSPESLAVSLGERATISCKSRQSVLYESPNKNSVHWYQQKAGQPPKLLIYWASTRESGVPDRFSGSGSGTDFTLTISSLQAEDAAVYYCQQYHRLPLSFGGGTKVEIK, the assay gave nd (0 of 3 replicates; controls 3 of 9). For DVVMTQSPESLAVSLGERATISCKSTQSVLYEQRNKNSVAWYQQKAGQPPKLLIYWASTRESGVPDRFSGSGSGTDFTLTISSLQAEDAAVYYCIQYHRLPLSFGGGTKVEIK, the assay gave 79 nM (3 of 3 replicates; controls 0 of 9). For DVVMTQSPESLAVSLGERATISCKSAQSVLYESRNKNSVAWYQQKAGQPPKLLIYWASTREYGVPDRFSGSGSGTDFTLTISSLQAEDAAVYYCQQYHRLPLSFGGGTKVEIK, the assay gave 11 nM (3 of 3 replicates; controls 1 of 9). With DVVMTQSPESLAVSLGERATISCKSIQSVLYESRNKNSVAWYQQKAGQPPKLLIYWGSTRESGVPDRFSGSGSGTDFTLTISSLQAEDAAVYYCQQYHRFPLSFGGGTKVEIK the result was 19 nM (3 of 3 replicates; controls 0 of 9).

Nonspecific signal, from three strains lacking the peptide, appeared in 18% of pairings of library AAYL50, centred on 15 µM (5% of these signals below 970 nM); values are not corrected for it. Also given: how often the same scFv was detected with the empty control strains.